System: human mesenchymal stem cells (MSCs)
Conditions: higher concentrations
Description: MSCs were grown in Dulbecco's Modified Eagle's Medium (DMEM) and fetal bovine serum (FBS) (10%) supplemented with fibroblast growth factor-2 (FGF-2) (5 ng/ml) for 1 week. They were then trypsinized, washed with DMEM, aliquoted at 1 million cells/vial and resuspended in Tyrodes' balanced salt solution. […] was later used throughout the coating procedure. […] Cell solutions were centrifuged (200 RCF, 5 min, r.t.), washed twice with cold Tyrodes solution, then incubated for 20 minutes with 20 μg/ml streptavidin-PE (S866 Invitrogen), washed with Tyrodes solution, fixed with formalin, and then assessed using flow cytometry and epifluorescent microscopy.

PA-SK(Biotin)NSCARSKNKDC [PA-BioCAR]
appearance of cells after coating: looked perturbed at higher concentrations

Reference: US8580749B2, “Peptide-coated cell localization to diseased or damaged tissues and methods related thereto” (Cell Targeting, Inc., priority 2009, dated 2013)
